# Antibody variant affinities, Ab-14 light chain, assay 1

Values reported by Engelhart et al. 2022, doi:10.1038/s41597-022-01779-4 (FLAb copy).

Target peptide (SARS-CoV-2 spike, HR2 region): PDVDLGDISGINAS

Parent: Ab-14, a human scFv built as VH, a 15-residue (Gly4Ser)3 linker, VL. Only the CDRs of the light chain vary.
VH: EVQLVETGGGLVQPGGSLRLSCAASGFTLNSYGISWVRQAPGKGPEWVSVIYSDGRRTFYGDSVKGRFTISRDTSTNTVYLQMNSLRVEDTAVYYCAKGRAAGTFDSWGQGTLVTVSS
VL: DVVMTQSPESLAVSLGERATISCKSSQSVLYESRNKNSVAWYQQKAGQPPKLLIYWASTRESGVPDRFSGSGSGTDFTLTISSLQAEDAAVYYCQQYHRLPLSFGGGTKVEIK

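Phage display of a naive human antibody library on the peptide gave the parent. Variants in AAYL50 differ from the parent at up to three CDR positions; double and triple changes were sampled at random. The scFvs were displayed on barcoded MATa yeast, the peptide on MATalpha yeast. Binding brings cells together so that they mate, and sequencing counts the barcode pairs among the diploids. The ratio of observed to expected reads was calibrated, replicate by replicate, on BCL2-family standards whose Kd was known from biolayer interferometry. Each pool was mated in three replicate cultures.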

Changes read parent residue, position, new residue, counted from the first residue of the VL shown.
Values are apparent Kd, the geometric mean of the replicates that gave a signal; lower means stronger binding.
"nd" marks a missing value. The strain was present, yet no cells mated with the target were sequenced in any replicate, which points to weak or no binding.
Background: pairings of library AAYL50 with three empty control strains gave a value in 18% of cases (median 15 µM, 5th percentile 970 nM). Values in that range, when seen in few replicates, are hard to tell from nonspecific mating. For each scFv, signals with the empty controls are counted beside the result.
In this assay the parent's reference entry averaged 4.4 nM; its copy inside this library read 48 nM.

| changes | apparent Kd | replicates with signal | signal with controls |
|---|---|---|---|
| S26Q+V39H+P101D | nd | 0 of 3 | 1 of 9 |
| V29N+L100A+P101W | 29 nM | 3 of 3 | 6 of 9 |
| V29D+S33L+A57N | 20 µM | 2 of 3 | 4 of 9 |
| S25L+L30S+L102P | 3.1 nM | 3 of 3 | 0 of 9 |
| S28C+S58V+T59E | 4.1 µM | 3 of 3 | 2 of 9 |
| V29C+R60A+Q95P | nd | 0 of 3 | 1 of 9 |
| S25P+V29T+T59G | nd | 0 of 3 | 0 of 9 |
| V29N+T59Y+E61C | 71 nM | 3 of 3 | 2 of 9 |
| S26C+S62M+P101T | nd | 0 of 3 | 0 of 9 |
| A40P+T59M+S103V | nd | 0 of 3 | 1 of 9 |
| R34S+T59S+L102C | 61 nM | 3 of 3 | 2 of 9 |
| V39I+R99I+S103A | 30 nM | 3 of 3 | 3 of 9 |
| V29G+L30K+N37V | nd | 0 of 3 | 0 of 9 |
| K36D+R60W+Q95W | 3.0 µM | 2 of 3 | 1 of 9 |
| K36R+S58W+L100T | nd | 0 of 3 | 0 of 9 |
| S33W+A40Y+Q95E | 3.3 µM | 1 of 3 | 0 of 9 |
| Q27D+S62M+Y97L | nd | 0 of 3 | 2 of 9 |
| Q27H+N37E+Q95Y | 6.6 µM | 3 of 3 | 0 of 9 |
| S26H+Y31F+S103C | 480 nM | 3 of 3 | 1 of 9 |
| Q95D+L102D+S103P | nd | 0 of 3 | 1 of 9 |
| V39T+L100I | 3.2 µM | 1 of 3 | 2 of 9 |
| E32S+Y97K+L100N | nd | 0 of 3 | 0 of 9 |
| V29H+K36A+S58L | nd | 0 of 3 | 0 of 9 |
| S25T+K36D+W56G | 7.0 nM | 3 of 3 | 5 of 9 |
| E32R+V39C+S58K | 6.9 µM | 1 of 3 | 0 of 9 |
| Q27Y+W56P+S58W | 240 µM | 1 of 3 | 3 of 9 |
| S58A+T59C+L102E | 360 nM | 3 of 3 | 2 of 9 |
| R34D+Q95K+P101L | 9.5 µM | 1 of 3 | 3 of 9 |
| E32S+A40H+S62T | 15 µM | 2 of 3 | 1 of 9 |
| Q27R+W56Q+L102N | 94 µM | 1 of 3 | 0 of 9 |
| V39Q+S58Q | 10 µM | 1 of 3 | 0 of 9 |
| S26Q+K36M+Y97M | nd | 0 of 3 | 0 of 9 |
| L100C+L102E+S103D | 100 µM | 2 of 3 | 1 of 9 |
| S33K+Y97K+R99M | nd | 0 of 3 | 0 of 9 |
| L30R+Y97E+S103W | nd | 0 of 3 | 1 of 9 |
| S62G+P101N+L102G | 190 µM | 2 of 3 | 2 of 9 |
| N37L+A40I | nd | 0 of 3 | 1 of 9 |
| Q27K+R34K+Q96K | 4.4 µM | 1 of 3 | 0 of 9 |
| S25A+L30C+S33K | 370 nM | 3 of 3 | 3 of 9 |
| N37Q+T59P+R60L | 1.1 µM | 1 of 3 | 3 of 9 |
| T59Y+E61M+P101K | nd | 0 of 3 | 0 of 9 |
| S26C+Y97Q+S103P | nd | 0 of 3 | 0 of 9 |
| K36C+P101K+S103P | 2.8 µM | 1 of 3 | 4 of 9 |
| L30H+K36H+Q96L | 700 nM | 3 of 3 | 2 of 9 |
| Q27Y+S38M+P101A | nd | 0 of 3 | 1 of 9 |
| S28G+A40H+L102D | 3.5 µM | 1 of 3 | 1 of 9 |
| E32K+A40G+Y97V | nd | 0 of 3 | 0 of 9 |
| W56A+Q95F+Q96T | nd | 0 of 3 | 0 of 9 |
| E32K+E61N+S62A | 490 nM | 3 of 3 | 4 of 9 |
| K24G+L30C+S58G | 5.8 µM | 1 of 3 | 1 of 9 |
| S26Y+V39S+Y97K | 1.7 µM | 1 of 3 | 0 of 9 |
| Q27L+A57D+H98F | nd | 0 of 3 | 1 of 9 |
| K24V+Q27K+H98V | 340 nM | 1 of 3 | 0 of 9 |
| L30M+S58R+L102T | 98 nM | 3 of 3 | 1 of 9 |
| S38H+Q96W+L100N | nd | 0 of 3 | 0 of 9 |
| N35S+N37K+P101A | 97 µM | 3 of 3 | 5 of 9 |
| L30F+S33R+Q96K | 74 µM | 1 of 3 | 1 of 9 |
| S25K+E32T+E61R | 520 µM | 3 of 3 | 6 of 9 |
| Y31A+Q95K+L102Q | 120 nM | 3 of 3 | 0 of 9 |
| N37V+L100G | 30 µM | 1 of 3 | 0 of 9 |
| S28P+W56F+L100A | nd | 0 of 3 | 0 of 9 |
| E32G+L100K | 5.0 nM | 3 of 3 | 0 of 9 |
| N35V+W56G+R99H | 19 nM | 3 of 3 | 2 of 9 |
| V29D+A57N+T59F | 200 nM | 3 of 3 | 1 of 9 |
| V29E+A57H+P101M | nd | 0 of 3 | 1 of 9 |
| R60D+Q95M+L102K | nd | 0 of 3 | 0 of 9 |
| Y31M+Y97M+P101T | nd | 0 of 3 | 0 of 9 |
| Q27A+S62T | 2.9 nM | 3 of 3 | 0 of 9 |
| V39W+Y97E+L102M | 440 nM | 1 of 3 | 3 of 9 |
| K24Q+V29F+S62V | 19 nM | 3 of 3 | 2 of 9 |
| S28E+H98Y+L100M | 18 nM | 3 of 3 | 0 of 9 |
| S26W+S38D+W56A | 11 nM | 3 of 3 | 1 of 9 |
| V29Q+N37S+P101C | 150 nM | 3 of 3 | 0 of 9 |
| S26F+S38N+V39T | nd | 0 of 3 | 1 of 9 |
| S38L+W56F+Y97Q | 29 µM | 1 of 3 | 2 of 9 |

4 of these entries, quoted again:

changes	apparent Kd	replicates with signal	signal with controls
V29E+A57H+P101M	nd	0 of 3	1 of 9
K24G+L30C+S58G	5.8 µM	1 of 3	1 of 9
V29Q+N37S+P101C	150 nM	3 of 3	0 of 9
S28P+W56F+L100A	nd	0 of 3	0 of 9